Earlier results in US20220194940A1, “HETEROCYCLIC INHIBITORS OF TYROSINE KINASE” (Board of Regents, The University of Texas System, priority 2019, published 2022).

System: HER2 exon 20 insertions
Settings: by itself; background statement; cited from earlier work

## trastuzumab
  efficacy against HER2 exon 20 insertions: ineffective by itself
